Structures can show the parent of a compound that is named as a salt.
Assays:
[1] = target: human NMDA receptor GluN1 and GluN2A subunits (Homo sapiens, UniProt Q05586+Q12879); experiment: Whole-cell patch-clamp recording of NMDA receptor-mediated current in HEK293 cells; conditions: for % (10 µM) inhibition on NMDAR-mediated current: compound at 10 µM, glutamic acid 100 µM; for IC50: read-out: IC50 (µM) inhibition on NMDAR-mediated current, fitted from 10, 3, 1, 0.3, 0.1, 0.03 µM
Method: The day before transfection, HEK293 cells were inoculated into a 24-well plate with a 10 mm glass slide, and the glass slide was coated with polylysine in advance to increase the cell attachment. DMEM medium containing 10% FBS was added, and the cells were cultured in an incubator at 37°C and 5% CO2. When the cells were grown to 60%-70% confluency after 18-24 hrs, TRE-GluN1-GluN2A containing human GluN1 and GluN2A, and the plasmid cDNAs of tTA and pCAG-EGFP were transfected into HEK293 cells by lipofectin transfection (TRE-GluN1-GluN2A: tTA: pCAG-EGFP was 0.2 µg : 0.2 µg : 0.02 µg). Before transfection, a new DMEM medium was changed, and 1 µg/mL Dox (doxycycline) was added to the medium to induce stable expression. 100 µM D-APV and 10 mM MgCl2 were added to avoid excitotoxicity to cells caused by NMDAR overexpression. About 24 hrs after transfection, the cells with green fluorescence were selected for electrophysiological recording.
The glass slide inoculated with HEK293 cells was placed in a recording chamber, and an extracellular solution (NaCl 140 mM, KCl 2.8 mM, HEPES 10 mM, CaCl2 1 mM, glycine 0.1 mM, pH7.2) was perfused at a speed of 4 mL/ min. The channels of the ALA-VC^3 eight-channel pressurized perfusion system were filled with an extracellular solution for washing, an extracellular solution containing glutamic acid (100 µM), and an extracellular solution containing glutamic acid and the compound to be tested respectively. The dripping rate was approximately 1 drop per sec, with a volume of 10 µL per drop. HEK293 cells with moderate green fluorescence intensity and good attachment were recorded under a fluorescence microscope. The delivery glass microtube of the perfusion system was positioned at a distance of approximately ten cell diameters away from the cell to be recorded. The drug was sprayed on the cell surface under air pressure (0.02 MPa). The glass electrode with a resistance of 4-6 MΩ was drawn with a microelectrode drawing instrument, and filled with an internal solution (CsCl 125 mM, HEPES 10 mM, EGTA 11 mM). Using a microelectrode manipulator, the glass electrode was slowly pushed to the cells. After the electrode was attached to the cell membrane, a negative pressure was applied, to form a high-resistance seal of 1 GΩ or higher between the electrode tip and the cell membrane, and then a negative pressure was applied to rupture the cell member and establish a whole-cell recording configuration. After the whole cell recording configuration was formed, the cell membrane potential was clamped at -70 mV. The extracellular solution containing 100 µM glutamic acid, the extracellular solution containing 100 µM glutamic acid and the compound to be tested, and the extracellular fluid were sprayed by the perfusion system on the surface of the cell membrane in sequence, for a time of 10 s, 20 s, and 10 s respectively. The NMDA receptor-mediated current was recorded to evaluate the inhibitory effect of the compound to be tested on NMDAR containing GluN2A. The test process was controlled by pCLAMP 10.6, and the stimulation signal is generated and the feedback signal is collected by using Digidata 1440A digital-to-analog converter.
In the test, the inhibition (%) on NMDAR-mediated current was evaluated after the compound was administered at a concentration of 10 µM, or the inhibition of the compound at 10, 3, 1, 0.3, 0.1, and 0.03 µM were tested, and fitted to obtain the IC50 value.
The inhibition percentage (inhibition rate) of the compound of the present invention on NMDAR-mediated current = (1- NMDAR-mediated current after administration/NMDAR-mediated current before administration)*100%. The inhibition rates of the compound at 10, 3, 1, 0.3, 0.1, and 0.03 µM were imported into Graphpad prism software, and subjected to Nonlinear Regression analysis. The IC50 value was automatically calculated by curve fitting.

Chains of the proteins cited; added tags and fusions are not shown. Residues count along the entry.
UniProt Q12879, 23-1464 limits assumed: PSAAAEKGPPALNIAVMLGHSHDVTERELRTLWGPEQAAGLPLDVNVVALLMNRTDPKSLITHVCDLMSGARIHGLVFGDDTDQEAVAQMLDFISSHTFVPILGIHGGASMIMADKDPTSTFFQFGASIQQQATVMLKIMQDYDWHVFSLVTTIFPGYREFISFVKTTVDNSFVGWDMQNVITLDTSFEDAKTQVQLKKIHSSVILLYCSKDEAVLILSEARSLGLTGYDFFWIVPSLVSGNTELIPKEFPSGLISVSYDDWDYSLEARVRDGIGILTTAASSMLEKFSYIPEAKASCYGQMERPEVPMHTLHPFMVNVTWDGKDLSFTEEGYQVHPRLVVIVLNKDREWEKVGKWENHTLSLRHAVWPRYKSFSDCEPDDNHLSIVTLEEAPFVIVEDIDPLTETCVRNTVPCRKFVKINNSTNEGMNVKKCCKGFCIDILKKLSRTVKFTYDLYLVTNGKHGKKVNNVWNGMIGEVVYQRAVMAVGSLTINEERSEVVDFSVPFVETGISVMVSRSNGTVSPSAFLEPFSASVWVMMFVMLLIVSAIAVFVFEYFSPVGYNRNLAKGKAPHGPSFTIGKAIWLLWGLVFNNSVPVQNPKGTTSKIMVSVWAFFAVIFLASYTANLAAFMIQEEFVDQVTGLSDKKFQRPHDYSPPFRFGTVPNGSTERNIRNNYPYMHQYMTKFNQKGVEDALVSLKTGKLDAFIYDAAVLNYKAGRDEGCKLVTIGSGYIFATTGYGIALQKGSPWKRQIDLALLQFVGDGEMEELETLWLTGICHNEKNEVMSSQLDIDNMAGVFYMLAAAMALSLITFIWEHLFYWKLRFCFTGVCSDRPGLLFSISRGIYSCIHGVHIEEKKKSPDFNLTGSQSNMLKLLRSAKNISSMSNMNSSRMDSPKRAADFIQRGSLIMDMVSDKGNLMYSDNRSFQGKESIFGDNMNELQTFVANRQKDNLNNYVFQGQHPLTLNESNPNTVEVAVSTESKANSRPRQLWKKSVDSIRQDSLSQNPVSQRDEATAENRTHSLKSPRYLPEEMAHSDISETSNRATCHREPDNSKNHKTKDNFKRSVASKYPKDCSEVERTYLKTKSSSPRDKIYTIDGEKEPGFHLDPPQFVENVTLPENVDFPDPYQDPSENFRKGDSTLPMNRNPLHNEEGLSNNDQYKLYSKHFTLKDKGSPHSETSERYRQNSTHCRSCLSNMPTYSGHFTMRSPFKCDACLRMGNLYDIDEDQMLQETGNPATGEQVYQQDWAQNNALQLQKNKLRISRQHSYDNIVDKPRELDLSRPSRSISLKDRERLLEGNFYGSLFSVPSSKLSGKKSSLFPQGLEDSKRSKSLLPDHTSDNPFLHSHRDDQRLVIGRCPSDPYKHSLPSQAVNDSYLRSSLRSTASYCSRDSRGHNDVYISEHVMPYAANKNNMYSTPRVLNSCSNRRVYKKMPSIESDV

[2] = Solid stability test (purity, crystal form, appearance on storage)
Method: Crystal Form A of the hydrochloride, Crystal Form B of the phosphate, and Crystal Form C of the mesylate of Compound 2 and Crystal Form G of the hydrochloride, Crystal Form I of the phosphate, and Crystal Form J of the mesylate of Compound 3 were respectively packaged and stored at an acceleration condition of 40°C/75% RH, a routing condition of 25°C/60% RH, and a high-temperature condition of 60°C, and the purity, crystal form, and appearance of the compounds were evaluated at different times. Table 20. Solid stability test results of Crystal Form A of Compound 2 hydrochloride

[3] = Solution stability: purity of the solution over 24 hrs in the solubility test; conditions: for solution stability: summary in words
Method: The solubilities of different forms of the compounds in media with different pH values were tested. The compound sample was weighed into a glass flask, and 1 mL or 2 mL of phosphate buffer pH=6.0, pure water, phosphate buffer pH=8.0, and/or 0.9% physiological saline respectively was added respectively, and magnetically stirred at 20°C for 24 hrs. A sample was taken for solubility test, and the purity of the solution over 24 hrs was tested. Table 18: Solubility test results of different crystal forms of the salts of Compound 2 in media with different pH values

[4] = solution in Phosphate buffer pH=6.0, 24 h
[5] = solution in Phosphate buffer pH=8.0, 24 h
[6] = solution in Pure water pH=6.8, 24 h

Compound: [2H]C1([2H])CN[C@@]2(c3cccs3)CCCC[C@H]2O1
- % (10 µM) inhibition on NMDAR-mediated current [1]: 95%

Compound: [2H]C1([2H])CO[C@H]2CCCC[C@@]2(c2ccccc2)N1
- % (10 µM) inhibition on NMDAR-mediated current [1]: 74%

Compound: [2H]C1([2H])CN[C@]2(c3ccccc3)CCCC[C@@H]2O1
- % (10 µM) inhibition on NMDAR-mediated current [1]: 70%

Compound: [2H]C1([2H])CN[C@@]2(c3ccccc3)CCCC[C@H]2O1
- % (10 µM) inhibition on NMDAR-mediated current [1]: 81%

Compound: Clc1cccc([C@@]23CCCC[C@H]2OCCN3)c1 [Compound 2]
- IC50 [1]: 0.654 µM

Compound: Fc1csc([C@]23CCCC[C@H]2OCCN3)c1
- % (10 µM) inhibition on NMDAR-mediated current [1]: 74%

Compound: Clc1cccc([C@@]23CCCC[C@H]2OCCN3)c1 [Compound 2 mesylate]
- IC50 [1]: 0.746 µM

Compound: Clc1ccccc1[C@@]12CCCC[C@H]1OCCN2 [Crystal Form J of Compound 3 mesylate]
- Appearance ([2]; 0D (start of storage)): Dry white solid powder
- Crystal Form ([2]; 0D (start of storage)): Crystal Form J
- Purity ([2]; 0D (start of storage)): 99.95%
- Appearance ([2]; 40°C/75% RH, 7D): White solid powder
- Crystal Form ([2]; 40°C/75% RH, 7D): Crystal Form J
- Purity ([2]; 40°C/75% RH, 7D): 99.96%
- Appearance ([2]; 40°C/75% RH, 30D): White solid powder
- Crystal Form ([2]; 40°C/75% RH, 30D): Crystal Form J
- Purity ([2]; 40°C/75% RH, 30D): 99.95%
- Appearance ([2]; 60°C, 7D): White solid powder
- Crystal Form ([2]; 60°C, 7D): Crystal Form J
- Purity ([2]; 60°C, 7D): 99.97%
- Appearance ([2]; 60°C, 30D): White solid powder
- Crystal Form ([2]; 60°C, 30D): Crystal Form J
- Purity ([2]; 60°C, 30D): 99.98%
- Purity (24 h) [3, 4]: 99.88%
- Purity (24 h) [3, 5]: 99.81%
- Purity (24 h) [3, 6]: 99.86%
- solution stability [3]: good

Compound: c1cc([C@]23CCCC[C@H]2OCCN3)cs1
- % (10 µM) inhibition on NMDAR-mediated current [1]: 87%

Compound: c1cc([C@]23CCCC[C@@H]2OCCN3)cs1
- % (10 µM) inhibition on NMDAR-mediated current [1]: 96%

Compound: Clc1ccccc1[C@@]12CCCC[C@H]1OCCN2
- IC50 [1]: 0.849 µM

Compound: Clc1sccc1[C@@]12CCCC[C@H]1OCCN2
- % (10 µM) inhibition on NMDAR-mediated current [1]: 78%

Compound: [2H]C1([2H])CO[C@@H]2CCCC[C@]2(c2ccccc2)N1
- % (10 µM) inhibition on NMDAR-mediated current [1]: 86%

Compound: c1csc([C@@]23CCCC[C@@H]2CCCN3)c1
- % (10 µM) inhibition on NMDAR-mediated current [1]: 30%

Compound: [2H]c1c([2H])c([2H])c(C23CCCCC2OCCN3)c([2H])c1[2H] (stereo not shown)
- % (10 µM) inhibition on NMDAR-mediated current [1]: 69%

Compound: Clc1cccc([C@]23CCCC[C@@H]2OCCN3)c1
- IC50 [1]: 1.41 µM

Compound: Clc1cccc([C@@]23CCCC[C@H]2OCCN3)c1 [Crystal Form B of Compound 2 phosphate]
- Appearance ([2]; 0D (start of storage)): Dry white solid powder
- Crystal Form ([2]; 0D (start of storage)): Crystal Form B
- Purity ([2]; 0D (start of storage)): 99.98%
- Appearance ([2]; 25°C/60% RH, 5D): White solid powder
- Crystal Form ([2]; 25°C/60% RH, 5D): Crystal Form B
- Purity ([2]; 25°C/60% RH, 5D): 99.97%
- Appearance ([2]; 25°C/60% RH, 10D): White solid powder
- Crystal Form ([2]; 25°C/60% RH, 10D): Crystal Form B
- Purity ([2]; 25°C/60% RH, 10D): 99.98%
- Appearance ([2]; 25°C/60% RH, 30D): White solid powder
- Crystal Form ([2]; 25°C/60% RH, 30D): Crystal Form B
- Purity ([2]; 25°C/60% RH, 30D): 99.98%
- Appearance ([2]; 40°C/75% RH, 5D): White solid powder
- Crystal Form ([2]; 40°C/75% RH, 5D): Crystal Form B
- Purity ([2]; 40°C/75% RH, 5D): 99.99%
- Appearance ([2]; 40°C/75% RH, 10D): White solid powder
- Crystal Form ([2]; 40°C/75% RH, 10D): Crystal Form B
- Purity ([2]; 40°C/75% RH, 10D): 99.98%
- Appearance ([2]; 40°C/75% RH, 30D): White solid powder
- Crystal Form ([2]; 40°C/75% RH, 30D): Crystal Form B
- Purity ([2]; 40°C/75% RH, 30D): 99.98%
- Appearance ([2]; 60°C, 5D): White solid powder
- Crystal Form ([2]; 60°C, 5D): Crystal Form B
- Purity ([2]; 60°C, 5D): 99.99%
- Appearance ([2]; 60°C, 10D): White solid powder
- Crystal Form ([2]; 60°C, 10D): Crystal Form B
- Purity ([2]; 60°C, 10D): 99.99%
- Appearance ([2]; 60°C, 30D): White solid powder
- Crystal Form ([2]; 60°C, 30D): Crystal Form B
- Purity ([2]; 60°C, 30D): 99.99%
- Purity (24 h) ([3]; solution in 0.9% physiological saline, 24 h): 99.88%
- Purity (24 h) [3, 4]: 99.95%
- Purity (24 h) [3, 5]: 99.98%
- Purity (24 h) [3, 6]: 99.70%
- solution stability [3]: good

Compound: c1csc([C@]23CCCC[C@H]2CCCN3)c1
- % (10 µM) inhibition on NMDAR-mediated current [1]: 32%

Compound: c1cc([C@@]23CCCC[C@@H]2OCCN3)cs1
- % (10 µM) inhibition on NMDAR-mediated current [1]: 78%

Compound: [2H]C1([2H])CO[C@H]2CCCC[C@]2(c2cccc(Cl)c2)N1 (single isomer, unassigned)
- % (10 µM) inhibition on NMDAR-mediated current [1]: 70%

Compound: Clc1cscc1[C@]12CCCC[C@H]1OCCN2
- % (10 µM) inhibition on NMDAR-mediated current [1]: 88%

Compound: [2H]C1([2H])CO[C@@H]2CCCC[C@@]2(c2cccc(Cl)c2)N1 (single isomer, unassigned)
- % (10 µM) inhibition on NMDAR-mediated current [1]: 77%

Compound: Clc1ccccc1[C@@]12CCCC[C@H]1OCCN2 [Crystal Form I of Compound 3 phosphate]
- Appearance ([2]; 0D (start of storage)): Dry white solid powder
- Crystal Form ([2]; 0D (start of storage)): Crystal Form I
- Purity ([2]; 0D (start of storage)): 99.91%
- Appearance ([2]; 40°C/75% RH, 7D): White solid powder
- Crystal Form ([2]; 40°C/75% RH, 7D): New crystal form
- Purity ([2]; 40°C/75% RH, 7D): 99.92%
- Appearance ([2]; 60°C, 7D): White solid powder
- Crystal Form ([2]; 60°C, 7D): Crystal Form I
- Purity ([2]; 60°C, 7D): 99.95%
- crystal form stability ([2]; high-temperature and acceleration conditions): undergoes crystal transformation
- Purity (24 h) [3, 4]: 99.88%
- Purity (24 h) [3, 5]: 99.81%
- Purity (24 h) [3, 6]: 99.86%
- solution stability [3]: good
